Values quoted from earlier work as cited in US5618809A, “Indolocarbazoles from saccharothrix aerocolonigenes copiosa subsp. nov SCC 1951 ATCC 53856” (Schering Corporation, priority 1995, dated 1997).

Legend:
yeast and fungi = conditions: cited from earlier work
[1] = cited from earlier work
[2] = in vivo; cited from earlier work

Structure (SMILES): CN[C@@H]1C[C@H]2O[C@@](C)([C@@H]1OC)n1c3ccccc3c3c4c(c5c6ccccc6n2c5c31)C(=O)NC4 [Staurosporine, staurosporine]
- antibiotic activity in yeast and fungi (in words) (yeast and fungi): antibiotic activity in yeast and fungi
- antitumor activity in-vivo (in words) [1]: antitumor activity in-vivo
- effect on hypertension, edema and ulcers (in words) [2]: therapeutic effect on hypertension, edema and ulcers
